Reference: article PMC8958505, “Discovery of Potential Neuroprotective Agents against Paclitaxel-Induced Peripheral Neuropathy” (Journal of Medicinal Chemistry, 2022)
Counter-ions that a name gives are not always drawn.

Key:
[1] = Pharmacokinetics after intravenous injection; format: in vivo; conditions: male, mouse, plasma, 5 mg/kg IV, ICR mice, mean ± SD (n = 3)
Experimental: Male ICR mice weighed (29–33 g) were obtained from BioLASCO (Taiwan Co., Ltd., Ilan, Taiwan). The animal studies were performed according to NHRI institutional animal care and committee-approved procedures. Food and water were available ad libitum throughout the experiment. A single 5.0 mg/kg dose of CN016 was dissolved in normal saline and was separately administered to mice intravenously. The groups consisted of three mice for each time point. At times 0.03, 0.08, 0.25, 0.5, 1, 2, 4, 6, 8, 16, and 24 h after dosing, blood was collected from groups of three mice at each time point by cardiac puncture. Plasma was separated from blood and stored in a freezer (−80 °C) before LC/MS/MS analysis. In addition, pharmacokinetic analysis of CN016 following intraperitoneal administration (IP, 5 mg/kg) is provided in Figure S2 (Supporting Information).

[2] = molecular target: Platelet Activating Factor (PAF) (Homo sapiens, UniProt P25105); test: LeadProfilingScreen: Platelet Activating Factor (PAF); format: binding
Glutamate, NMDA, Agonism = test: LeadProfilingScreen: Glutamate, NMDA, Agonism; format: binding, rat; conditions: 10 μM
Androgen (Testosterone) = Androgen (Testosterone) (Homo sapiens, UniProt P10275); test: LeadProfilingScreen: Androgen (Testosterone); format: binding
Adrenergic α1B = Adrenergic α1B (Homo sapiens, UniProt P35368); test: LeadProfilingScreen: Adrenergic α1B; format: binding
CYP 2E1 = molecular target: T1, CYP 2E1 (Homo sapiens, UniProt P05181); test: Cytochrome P450 testing, CYP 2E1; format: in vitro ADME; conditions: chlorzoxazone 6-hydroxylation; read-out: Concentration of inhibition (IC50), CYP 2E1
T1 construct: host or cells: baculovirus-infected insect cells (supersomes)
Excerpt: (§1) Cytochrome P450 testing of CN016
(§2) The effects of CN016 on the activity of six specific human liver cytochrome P450 isozymes (CYP 1A2, 2C9, 2C19, 2D6, 2E1, 3A4) expressed in baculovirus-infected insect cell supersomes were studied. The reactions used to measure the activity of these enzymes were phenacetin O-deethylation (1A2), diclofenac 4-hydroxylation (2C9), mephenytoin 4-hydroxylation (2C19), dextromethorphan O-demethylation (2D6), chlorzoxazone 6-hydroxylation (2E1) and testosterone 6-hydroxylation (3A4).
(§3) Furafylline, sulfaphenazole, tranylcypromine, quinidine, diethyldithiocarbamate and azamulin were used as reference inhibitors of these enzymes. Incubation mixtures containing no CN016 or reference inhibitors were used as controls. The tested result […]
(§4) Table S4. Result of Cytochrome P450 testing of CN016

Sodium Channel, Site 2 = test: LeadProfilingScreen: Sodium Channel, Site 2; format: binding, rat; conditions: 10 μM
Opiate δ1 (OP1, DOP) = Opiate δ1 (OP1, DOP) (Homo sapiens, UniProt P41143); test: LeadProfilingScreen: Opiate δ1 (OP1, DOP); format: binding
[3] = molecular target: Serotonin (5-Hydroxytryptamine) 5-HT2B (Homo sapiens, UniProt P41595); test: LeadProfilingScreen: Serotonin 5-HT2B; format: binding; conditions: read-out: Inhibition (%), Serotonin (5-Hydroxytryptamine) 5-HT2B
Excerpt: (§5) LeadProfilingScreen (Total # of Assays: 67)
(§6) To evaluate, in LeadProfilingScreen, the activity of test compound CN168 (Panlabs # 1251879). […]
(§7) Summary of Significant Results
(§8) Biochemical assay results are presented as the percent inhibition of specific binding or activity throughout the report.
(§9) All other results are expressed in terms of that assay's quantitation method.
(§10) • For primary assays, only the lowest concentration with a significant response judged by the assays' criteria, is […]
(§11) • Where applicable, either the secondary assay results with the lowest dose/concentration meeting the significance […]
(§12) • Unless otherwise requested, primary screening in duplicate with quantitative data (e.g., IC50 ± SEM, Ki ± SEM and nH) are shown where applicable for individual requested assays. In screening packages, primary screening in duplicate with semi-quantitative data (e.g., estimated IC50, Ki and nH) are shown where applicable (concentration range of 4 log units); available secondary functional assays are carried out ([…]) and MEC or MIC determined only if active in primary assays >50% at 1 log unit below initial test concentration. […]

[4] = molecular target: Transporter, Norepinephrine (NET) (Homo sapiens, UniProt P23975); test: LeadProfilingScreen: Transporter, Norepinephrine (NET); format: binding
[5] = system: Calcium Channel L-Type, Dihydropyridine; test: LeadProfilingScreen: Calcium Channel L-Type, Dihydropyridine; format: binding, rat; conditions: 10 μM
Rolipram = test: LeadProfilingScreen: Rolipram; format: binding, rat; conditions: 10 μM
Dopamine D1 = Dopamine D1 (Homo sapiens, UniProt P21728); test: LeadProfilingScreen: Dopamine D1; format: binding
[6] = molecular target: Transporter, Serotonin (5-Hydroxytryptamine) (SERT) (Homo sapiens, UniProt P31645); test: LeadProfilingScreen: Transporter, Serotonin (SERT); format: binding
CYP 2C9 = molecular target: T2, CYP 2C9 (Homo sapiens, UniProt P11712); test: Cytochrome P450 testing, CYP 2C9; format: in vitro ADME; conditions: diclofenac 4-hydroxylation; read-out: Concentration of inhibition (IC50), CYP 2C9
T2 construct: host or cells: baculovirus-infected insect cells (supersomes)
Excerpt: as §1, §2, §3, §4

Adrenergic β2 = Adrenergic β2 (Homo sapiens, UniProt P07550); test: LeadProfilingScreen: Adrenergic β2; format: binding; conditions: read-out: Inhibition (%), Adrenergic β2
Excerpt: as §5, §6, §7, §8, §9, §10, §11, §12

Adrenergic α2A = Adrenergic α2A (Homo sapiens, UniProt P08913); test: LeadProfilingScreen: Adrenergic α2A; format: binding

What does the source list for `O=P(O)(O)CCN1CCC(Nc2cc(N3CCOCC3)nc(NCc3cn(CCCO)nn3)n2)CC1` [CN016, {2-[4-(2-{[1-(3-Hydroxy-propyl)-1H-[1,2,3]triazol-4-ylmethyl]-amino}-6-morpholin-4-yl-pyrimidin-4-ylamino)-piperidin-1-yl]-ethyl}-phosphonic Acid Hydrobromide Salt]?
AUC(0-t) at 24 h [1]: 6980 ± 1850 ng·h/mL; clearance at 24 h [1]: 12.8 ± 2.9 mL/min/kg; half-life at 24 h [1]: 12.8 ± 3.4 h; Vd at 24 h ([1]; read-out: Vss): 0.8 ± 0.5 L/kg; inhibition at 10 µM [2]: -6%; Inhibition (%), Glutamate, NMDA, Agonism (Glutamate, NMDA, Agonism): -3%; inhibition at 10 µM (Androgen (Testosterone)): 6%; inhibition at 10 µM (Adrenergic α1B): 14%; IC50 (CYP 2E1): > 100 µM; Inhibition (%), Sodium Channel, Site 2 (Sodium Channel, Site 2): -1%; inhibition at 10 µM (Opiate δ1 (OP1, DOP)): 6%; inhibition at 10 µM [3]: 10%; inhibition at 10 µM [4]: -1%; Inhibition (%), Calcium Channel L-Type, Dihydropyridine [5]: 14%; Inhibition (%), Rolipram (Rolipram): 6%; inhibition at 10 µM (Dopamine D1): -2%; inhibition at 10 µM [6]: -4%; IC50 (CYP 2C9): > 100 µM; inhibition at 10 µM (Adrenergic β2): -4%; inhibition at 10 µM (Adrenergic α2A): -4%
